Assays:
[1] = target: MAPK14 (p38a) (Homo sapiens, UniProt Q16539); assay: Kinase profiling, Direct Z-Lyte; conditions: 1 μM, KmATP
[2] = target: PDPK1 (Homo sapiens, UniProt O15530); assay: Kinase profiling, Direct Z-Lyte; conditions: 1 μM, KmATP
[3] = target: CYP1A2 (Homo sapiens, UniProt P05177); assay: CYP time dependent inhibition, CYP1A2; conditions: 10 μM, 30 min preincubation, HLM
[4] = In vitro biotransformation in minipig hepatocytes; conditions: 5 μM, 180 min
[5] = test system: human bone marrow derived CD34+ hematopoietic stem and progenitor cells; assay: In vitro hematopoietic stem and progenitor cell assay (bone marrow toxicity); conditions: read-out: MEAN IC50 VALUE IN PRIMARY HSPC (± STANDARD DEVIATION); CD34+ HSPC induced to erythroid lineage, 5 days
[6] = test system: SW620 tumors; assay: Human colorectal SW620 cell line-derived xenograft model in female athymic nude mice
[7] = In vitro biotransformation in human hepatocytes
[8] = target: ZAP70 (Homo sapiens, UniProt P43403); assay: Kinase profiling, Z-Lyte *Mn*; conditions: 1 μM, KmATP
[9] = target: ERBB4 (HER4) (Homo sapiens, UniProt Q15303); assay: Kinase profiling, Z-Lyte *Mn*; conditions: 1 μM, KmATP
[10] = target: ACVR1B (ALK4) (Homo sapiens, UniProt P36896); assay: Kinase profiling, Z-Lyte *Mn*
[11] = target: INSR (Homo sapiens, UniProt P06213); assay: Kinase profiling, Z-Lyte *Mn*; conditions: 1 μM, KmATP
[12] = target: NEK9 (Homo sapiens, UniProt Q8TD19); assay: Kinase profiling, Z-Lyte *Mn*; conditions: 1 μM, KmATP
[13] = target: PTK2B (FAK2) (Homo sapiens, UniProt Q14289); assay: Kinase profiling, Z-Lyte *Mn*; conditions: 1 μM, KmATP
[14] = target: TEK (Tie2) (Homo sapiens, UniProt Q02763); assay: Kinase profiling, Z-Lyte *Mn*; conditions: 1 μM, KmATP
[15] = target: FRAP1 (mTOR) (Homo sapiens, UniProt P42345); assay: Kinase profiling, Z-Lyte *Mn*; conditions: 1 μM, KmATP
[16] = target: PDGFRA (Homo sapiens, UniProt P16234); assay: Kinase profiling, Z-Lyte *Mn*; conditions: 1 μM, KmATP
[17] = target: KIT (Homo sapiens, UniProt P10721); assay: Kinase profiling, Z-Lyte *Mn*; conditions: 1 μM, KmATP
[18] = target: MUSK (Homo sapiens, UniProt O15146); assay: Kinase profiling, Z-Lyte *Mn*; conditions: 1 μM, KmATP
[19] = target: MKNK1 (MNK1) (Homo sapiens, UniProt Q9BUB5); assay: Kinase profiling, Z-Lyte *Mn*; conditions: 1 μM, KmATP
[20] = target: PTK6 (Brk) (Homo sapiens, UniProt Q13882); assay: Kinase profiling, Z-Lyte *Mn*; conditions: 1 μM, KmATP
[21] = target: FGFR4 (Homo sapiens, UniProt P22455); assay: Kinase profiling, Z-Lyte *Mn*; conditions: 1 μM, KmATP
[22] = target: FLT4 (VEGFR3) (Homo sapiens, UniProt P35916); assay: Kinase profiling, Z-Lyte *Mn*; conditions: 1 μM, KmATP
[23] = target: FLT1 (VEGFR1) (Homo sapiens, UniProt P17948); assay: Kinase profiling, Z-Lyte *Mn*; conditions: 1 μM, KmATP
[24] = target: FGFR1 (Homo sapiens, UniProt P11362); assay: Kinase profiling, Z-Lyte *Mn*; conditions: 1 μM, KmATP
[25] = target: FGFR2 (Homo sapiens, UniProt P21802); assay: Kinase profiling, Z-Lyte *Mn*; conditions: 1 μM, KmATP
[26] = target: NTRK2 (TRKB) (Homo sapiens, UniProt Q16620); assay: Kinase profiling, Z-Lyte *Mn*; conditions: 1 μM, KmATP
[27] = target: ERBB2 (HER2) (Homo sapiens, UniProt P04626); assay: Kinase profiling, Z-Lyte *Mn*; conditions: 1 μM, KmATP
[28] = target: EGFR (ErbB1) (Homo sapiens, UniProt P00533); assay: Kinase profiling, Z-Lyte *Mn*; conditions: 1 μM, KmATP
[29] = target: PDGFRB (Homo sapiens, UniProt P09619); assay: Kinase profiling, Z-Lyte *Mn*; conditions: 1 μM, KmATP
[30] = target: GRK5 (Homo sapiens, UniProt P34947); assay: Kinase profiling, Z-Lyte *Mn*; conditions: 1 μM, KmATP
[31] = target: FGFR3 (Homo sapiens, UniProt P22607); assay: Kinase profiling, Z-Lyte *Mn*; conditions: 1 μM, KmATP
[32] = target: MERTK (cMER) (Homo sapiens, UniProt Q12866); assay: Kinase profiling, Z-Lyte *Mn*; conditions: 1 μM, KmATP
[33] = target: IRAK4 (Homo sapiens, UniProt Q9NWZ3); assay: Kinase profiling, Z-Lyte *Mn*; conditions: 1 μM, KmATP
[34] = target: INSRR (IRR) (Homo sapiens, UniProt P14616); assay: Kinase profiling, Z-Lyte *Mn*; conditions: 1 μM, KmATP
[35] = In vivo tolerability, combination with irinotecan hydrochloride, female athymic nude mice
[36] = test system: SKOV3 cells; assay: Cellular proliferation (Hoechst staining), SKOV3; conditions: read-out: SKOV3 GI50; CCNE1-nonamplified, 4 days
[37] = human hepatocytes, 5 μM, 180 min

Amino acid sequences for entries named in this document (tags omitted). Residues count along the entry.
UniProt P43403, whole entry: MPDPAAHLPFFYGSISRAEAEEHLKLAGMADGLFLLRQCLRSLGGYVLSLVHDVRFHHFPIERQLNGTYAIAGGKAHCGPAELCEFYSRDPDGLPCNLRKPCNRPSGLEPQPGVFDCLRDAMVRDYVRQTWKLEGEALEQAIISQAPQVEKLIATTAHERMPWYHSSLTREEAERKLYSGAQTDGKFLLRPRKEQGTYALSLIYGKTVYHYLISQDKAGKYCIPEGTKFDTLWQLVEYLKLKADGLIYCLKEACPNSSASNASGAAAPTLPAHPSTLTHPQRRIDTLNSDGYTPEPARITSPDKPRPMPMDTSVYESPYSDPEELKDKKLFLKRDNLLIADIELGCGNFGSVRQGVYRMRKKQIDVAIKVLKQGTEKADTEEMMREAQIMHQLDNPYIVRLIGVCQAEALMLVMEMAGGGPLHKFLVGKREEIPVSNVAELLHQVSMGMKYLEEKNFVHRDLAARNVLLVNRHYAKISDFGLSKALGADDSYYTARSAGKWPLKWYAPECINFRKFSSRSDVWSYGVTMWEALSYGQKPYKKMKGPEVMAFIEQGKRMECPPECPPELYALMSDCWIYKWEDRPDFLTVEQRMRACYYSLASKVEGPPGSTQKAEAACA
UniProt P36896, 24-505 limits assumed: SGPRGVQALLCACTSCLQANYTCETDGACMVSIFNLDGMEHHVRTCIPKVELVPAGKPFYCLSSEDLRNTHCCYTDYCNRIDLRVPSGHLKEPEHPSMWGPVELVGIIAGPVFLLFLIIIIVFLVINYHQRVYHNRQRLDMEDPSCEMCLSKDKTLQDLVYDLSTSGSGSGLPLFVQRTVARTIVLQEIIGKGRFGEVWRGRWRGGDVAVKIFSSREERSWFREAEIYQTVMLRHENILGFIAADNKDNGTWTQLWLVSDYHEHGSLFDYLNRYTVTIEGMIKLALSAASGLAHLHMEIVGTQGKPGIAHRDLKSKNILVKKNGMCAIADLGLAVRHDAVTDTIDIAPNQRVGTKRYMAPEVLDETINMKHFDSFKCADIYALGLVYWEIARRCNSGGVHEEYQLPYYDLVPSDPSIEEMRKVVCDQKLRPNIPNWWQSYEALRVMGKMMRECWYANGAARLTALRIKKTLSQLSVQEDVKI
UniProt Q02763, 770-1124 limits assumed: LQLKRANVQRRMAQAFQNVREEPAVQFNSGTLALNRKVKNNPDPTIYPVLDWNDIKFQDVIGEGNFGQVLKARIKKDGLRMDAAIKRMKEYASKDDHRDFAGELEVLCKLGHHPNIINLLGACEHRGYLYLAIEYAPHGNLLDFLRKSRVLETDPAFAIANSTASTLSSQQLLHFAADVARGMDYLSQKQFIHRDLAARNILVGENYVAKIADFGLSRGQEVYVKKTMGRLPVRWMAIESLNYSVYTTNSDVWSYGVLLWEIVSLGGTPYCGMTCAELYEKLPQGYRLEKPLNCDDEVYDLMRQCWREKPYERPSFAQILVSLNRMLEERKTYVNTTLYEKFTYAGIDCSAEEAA
UniProt O15146, 517-869 limits assumed: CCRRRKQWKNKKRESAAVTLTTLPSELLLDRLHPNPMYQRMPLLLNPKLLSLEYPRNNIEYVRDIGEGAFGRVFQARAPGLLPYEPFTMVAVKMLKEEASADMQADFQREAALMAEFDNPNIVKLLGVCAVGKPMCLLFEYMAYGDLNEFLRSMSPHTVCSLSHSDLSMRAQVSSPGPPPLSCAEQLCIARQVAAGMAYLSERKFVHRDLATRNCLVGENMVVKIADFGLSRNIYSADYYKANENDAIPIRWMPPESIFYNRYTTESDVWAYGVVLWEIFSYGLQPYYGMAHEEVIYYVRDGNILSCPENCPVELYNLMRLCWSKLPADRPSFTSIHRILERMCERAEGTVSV
UniProt Q9BUB5, whole entry: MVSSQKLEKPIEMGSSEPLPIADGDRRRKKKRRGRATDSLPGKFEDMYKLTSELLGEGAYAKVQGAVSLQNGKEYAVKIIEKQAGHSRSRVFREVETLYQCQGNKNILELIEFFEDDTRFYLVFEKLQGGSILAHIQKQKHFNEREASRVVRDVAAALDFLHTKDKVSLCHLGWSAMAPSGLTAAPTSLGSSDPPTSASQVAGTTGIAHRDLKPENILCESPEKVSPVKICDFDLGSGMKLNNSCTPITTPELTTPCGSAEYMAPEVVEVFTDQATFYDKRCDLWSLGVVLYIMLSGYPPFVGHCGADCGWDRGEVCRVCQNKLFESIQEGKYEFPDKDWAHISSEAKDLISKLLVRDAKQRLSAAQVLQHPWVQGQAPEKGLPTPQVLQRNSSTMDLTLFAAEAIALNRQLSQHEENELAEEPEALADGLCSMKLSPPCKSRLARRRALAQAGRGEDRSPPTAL
UniProt P11362, 22-822 limits assumed: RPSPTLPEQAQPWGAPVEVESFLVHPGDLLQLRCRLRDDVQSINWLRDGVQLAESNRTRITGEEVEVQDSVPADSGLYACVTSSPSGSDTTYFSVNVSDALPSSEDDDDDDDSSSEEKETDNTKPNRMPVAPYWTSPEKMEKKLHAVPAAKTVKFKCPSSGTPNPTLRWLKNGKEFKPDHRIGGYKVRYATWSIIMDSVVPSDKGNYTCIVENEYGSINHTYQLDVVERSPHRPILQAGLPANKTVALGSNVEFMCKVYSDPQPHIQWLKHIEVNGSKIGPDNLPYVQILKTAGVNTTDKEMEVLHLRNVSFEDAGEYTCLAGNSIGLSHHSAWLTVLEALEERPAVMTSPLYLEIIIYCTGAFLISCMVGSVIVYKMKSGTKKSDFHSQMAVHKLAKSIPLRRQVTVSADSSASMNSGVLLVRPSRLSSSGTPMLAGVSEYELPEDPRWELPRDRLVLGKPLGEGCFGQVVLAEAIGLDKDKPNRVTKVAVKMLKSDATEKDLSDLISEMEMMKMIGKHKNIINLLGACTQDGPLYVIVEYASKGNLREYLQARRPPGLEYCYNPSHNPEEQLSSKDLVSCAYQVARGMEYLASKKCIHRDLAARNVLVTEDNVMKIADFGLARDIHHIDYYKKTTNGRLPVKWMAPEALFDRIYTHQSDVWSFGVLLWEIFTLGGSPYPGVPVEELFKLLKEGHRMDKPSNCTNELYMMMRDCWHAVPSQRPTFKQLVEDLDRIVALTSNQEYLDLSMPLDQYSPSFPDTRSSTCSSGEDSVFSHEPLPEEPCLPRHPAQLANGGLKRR
UniProt P00533, 25-1210 limits assumed: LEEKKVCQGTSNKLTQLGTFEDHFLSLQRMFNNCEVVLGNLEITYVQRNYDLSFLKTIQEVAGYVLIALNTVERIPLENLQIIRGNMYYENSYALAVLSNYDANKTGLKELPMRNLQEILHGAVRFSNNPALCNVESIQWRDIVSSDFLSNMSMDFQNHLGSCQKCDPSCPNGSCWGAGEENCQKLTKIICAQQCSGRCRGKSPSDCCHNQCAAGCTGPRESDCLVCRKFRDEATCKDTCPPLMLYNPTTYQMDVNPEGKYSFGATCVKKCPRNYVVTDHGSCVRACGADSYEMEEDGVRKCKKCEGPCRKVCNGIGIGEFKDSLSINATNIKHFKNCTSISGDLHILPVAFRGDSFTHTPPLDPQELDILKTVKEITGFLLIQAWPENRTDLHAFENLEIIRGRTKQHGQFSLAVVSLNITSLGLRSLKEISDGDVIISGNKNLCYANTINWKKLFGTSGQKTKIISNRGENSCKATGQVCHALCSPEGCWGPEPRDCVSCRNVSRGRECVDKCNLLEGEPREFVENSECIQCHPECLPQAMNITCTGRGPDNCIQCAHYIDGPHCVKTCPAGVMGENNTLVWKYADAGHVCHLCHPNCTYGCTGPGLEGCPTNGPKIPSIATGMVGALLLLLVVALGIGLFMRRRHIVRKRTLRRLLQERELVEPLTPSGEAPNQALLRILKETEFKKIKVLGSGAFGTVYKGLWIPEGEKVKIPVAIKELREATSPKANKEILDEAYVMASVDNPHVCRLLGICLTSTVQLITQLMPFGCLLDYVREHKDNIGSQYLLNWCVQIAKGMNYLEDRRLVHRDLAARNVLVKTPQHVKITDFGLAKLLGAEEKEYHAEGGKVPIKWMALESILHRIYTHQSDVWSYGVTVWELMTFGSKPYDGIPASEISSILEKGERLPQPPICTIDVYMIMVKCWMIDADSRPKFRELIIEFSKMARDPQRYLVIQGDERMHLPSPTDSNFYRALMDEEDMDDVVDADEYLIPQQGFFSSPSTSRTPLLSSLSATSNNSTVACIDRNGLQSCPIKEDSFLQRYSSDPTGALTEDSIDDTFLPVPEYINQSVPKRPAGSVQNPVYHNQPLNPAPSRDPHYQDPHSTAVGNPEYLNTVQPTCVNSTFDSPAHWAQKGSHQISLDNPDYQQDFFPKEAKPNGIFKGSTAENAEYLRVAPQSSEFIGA
UniProt P09619, 33-1106 limits assumed: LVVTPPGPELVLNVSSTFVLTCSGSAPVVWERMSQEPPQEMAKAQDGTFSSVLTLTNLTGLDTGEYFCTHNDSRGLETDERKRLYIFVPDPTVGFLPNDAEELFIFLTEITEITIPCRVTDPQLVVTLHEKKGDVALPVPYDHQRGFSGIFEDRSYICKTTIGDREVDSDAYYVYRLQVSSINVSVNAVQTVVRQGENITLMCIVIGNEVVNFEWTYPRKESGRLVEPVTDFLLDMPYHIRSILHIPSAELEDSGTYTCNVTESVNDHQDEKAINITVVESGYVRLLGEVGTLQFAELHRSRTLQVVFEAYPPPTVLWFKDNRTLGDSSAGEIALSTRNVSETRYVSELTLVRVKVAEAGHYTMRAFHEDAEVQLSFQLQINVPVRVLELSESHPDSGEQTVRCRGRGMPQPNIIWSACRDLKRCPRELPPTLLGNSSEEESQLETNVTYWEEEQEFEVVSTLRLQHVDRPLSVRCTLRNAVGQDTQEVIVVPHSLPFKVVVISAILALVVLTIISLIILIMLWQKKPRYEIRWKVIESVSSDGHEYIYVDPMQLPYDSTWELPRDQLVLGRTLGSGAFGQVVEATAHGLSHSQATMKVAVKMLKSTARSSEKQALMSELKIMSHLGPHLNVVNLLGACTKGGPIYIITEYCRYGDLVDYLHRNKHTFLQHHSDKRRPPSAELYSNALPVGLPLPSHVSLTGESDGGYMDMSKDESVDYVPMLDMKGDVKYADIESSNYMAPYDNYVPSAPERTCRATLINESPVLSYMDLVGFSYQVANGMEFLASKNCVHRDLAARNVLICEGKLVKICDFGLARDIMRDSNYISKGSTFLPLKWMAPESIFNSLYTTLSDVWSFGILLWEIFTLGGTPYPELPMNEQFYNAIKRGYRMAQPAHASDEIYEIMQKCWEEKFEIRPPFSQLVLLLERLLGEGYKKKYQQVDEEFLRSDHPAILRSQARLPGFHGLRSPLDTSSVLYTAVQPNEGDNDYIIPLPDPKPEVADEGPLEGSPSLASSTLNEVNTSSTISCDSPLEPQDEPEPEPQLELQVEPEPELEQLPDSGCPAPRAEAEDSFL
UniProt P34947, whole entry: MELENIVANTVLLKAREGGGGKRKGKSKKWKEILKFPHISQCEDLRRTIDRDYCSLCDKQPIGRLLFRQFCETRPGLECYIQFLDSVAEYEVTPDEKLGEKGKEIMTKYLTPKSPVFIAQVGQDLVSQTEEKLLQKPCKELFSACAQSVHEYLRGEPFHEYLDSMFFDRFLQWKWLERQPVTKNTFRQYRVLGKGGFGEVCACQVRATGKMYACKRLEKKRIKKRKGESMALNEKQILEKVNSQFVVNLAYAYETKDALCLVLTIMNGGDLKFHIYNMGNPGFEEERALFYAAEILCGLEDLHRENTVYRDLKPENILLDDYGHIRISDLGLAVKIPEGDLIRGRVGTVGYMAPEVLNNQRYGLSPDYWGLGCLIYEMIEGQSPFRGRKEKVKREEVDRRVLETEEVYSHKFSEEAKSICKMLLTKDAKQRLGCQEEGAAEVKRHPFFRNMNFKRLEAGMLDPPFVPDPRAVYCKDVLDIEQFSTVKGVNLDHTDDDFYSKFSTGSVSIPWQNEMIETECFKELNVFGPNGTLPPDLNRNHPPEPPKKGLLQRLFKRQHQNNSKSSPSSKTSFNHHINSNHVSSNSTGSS
UniProt P14616, 944-1297 limits assumed: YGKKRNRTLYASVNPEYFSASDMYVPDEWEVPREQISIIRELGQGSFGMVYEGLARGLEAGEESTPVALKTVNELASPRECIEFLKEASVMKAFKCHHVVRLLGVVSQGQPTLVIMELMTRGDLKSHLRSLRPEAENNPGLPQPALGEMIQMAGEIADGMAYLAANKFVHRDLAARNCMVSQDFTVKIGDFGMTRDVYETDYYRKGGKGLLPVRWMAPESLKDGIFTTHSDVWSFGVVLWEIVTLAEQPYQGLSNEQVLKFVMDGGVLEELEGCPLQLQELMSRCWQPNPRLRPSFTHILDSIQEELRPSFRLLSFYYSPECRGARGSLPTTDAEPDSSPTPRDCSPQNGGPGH

Cc1nc(C(F)(F)F)c2c(C(N)=O)c(N)n(-c3c(C)ccc(O)c3C)c2n1 (single isomer, unassigned)
MEAN INHIBITION [1]: 8.973% | MEAN INHIBITION [2]: −1.600% | % time dependent inhibition (TDI), CYP1A2 [3]: less than 20% | Glucuronidation [4]: M (Major (>10%)) | Oxidation [4]: m (minor (>1% but ≤10%)) | IC50 [5]: 30.2 µM | combination benefit ([6]; 10 mg/kg BID + irinotecan hydrochloride): Combination benefit was observed but less pronounced | tumor regression ([6]; 100 mg/kg BID + 50 mg/kg irinotecan hydrochloride i.p. once weekly, P<0.01): 18% | tumor growth inhibition ([6]; 100 mg/kg BID monotherapy): did not result in tumor growth inhibition | Glucuronidation [7, 37]: m (minor (>1% but ≤10%)) | Oxidation [7, 37]: m (minor (>1% but ≤10%)) | dominant routes of biotransformations ([7]; in vitro hepatocytes): oxidation and glucuronidation | MEAN INHIBITION [8]: 8.344% | MEAN INHIBITION [9]: −2.799% | MEAN INHIBITION ([10]; 1 μM, KmATP): 16.559% | IC50 ([10]; 10-point CR, ATP 5.000 μM): 2.01 µM | MEAN INHIBITION [11]: 5.030% | MEAN INHIBITION [12]: 0.700% | MEAN INHIBITION [13]: 4.024% | MEAN INHIBITION [14]: 6.545% | MEAN INHIBITION [15]: 0.025% | MEAN INHIBITION [16]: −15.943% | MEAN INHIBITION [17]: −0.129% | MEAN INHIBITION [18]: −4.285% | MEAN INHIBITION [19]: 0.622% | MEAN INHIBITION [20]: 90.004% | MEAN INHIBITION [21]: 0.351% | MEAN INHIBITION [22]: 3.700% | MEAN INHIBITION [23]: −2.074% | MEAN INHIBITION [24]: 23.959% | MEAN INHIBITION [25]: 2.906% | MEAN INHIBITION [26]: 11.914% | MEAN INHIBITION [27]: 0.967% | MEAN INHIBITION [28]: −1.842% | MEAN INHIBITION [29]: 3.732% | MEAN INHIBITION [30]: −1.432% | MEAN INHIBITION [31]: −3.160% | MEAN INHIBITION [32]: 4.429% | MEAN INHIBITION [33]: −5.866% | MEAN INHIBITION [34]: 3.922% | body weight loss, paw or tail swelling, adverse events ([35]; 100 mg/kg BID + irinotecan hydrochloride 50 mg/kg weekly, 28 days): No significant loss of body weight, paw or tail swelling, or other noticeable adverse events | free Cmax ([35]; 100 mg/kg BID oral, with irinotecan hydrochloride, athymic nude mice): approximately 5.7 μM | GI50 [36]: > 20.5 µM
